Consider one compound from article PMC6522510 (Nature Communications, 2019).

Holding throughout (assay): Secondary dose-response HTS, Cell Titer Glo
In one assay the test system is ML2. The settings on record: Homo sapiens, ML-2, read-out: average effective concentration, ML-2.
The next assay deals with CMK. The assay is classed as cell-based. As to conditions: Homo sapiens, read-out: average effective concentration, CMK.
For the next assay, the system named is CHRF288-11. As to conditions: Homo sapiens, read-out: average effective concentration, CHRF288-11.
The subject of a further assay is MV4-11. As to conditions: secondary high-throughput screen.
The subject of another assay is U937. As to conditions: Homo sapiens, U-937, read-out: average effective concentration, U937.
Another assay has as its system MOLM-13. The settings on record: secondary high-throughput screen.
Another assay has as its system M07e. As to conditions: Homo sapiens, M-07e, read-out: average effective concentration, M07e.

Each structure is given as a SMILES string.

Turning to `N#CC[C@H](C1CCCC1)n1cc(-c2ncnc3[nH]ccc23)cn1` [Ruxolitinib, ruxolitinib], the EC50 was 10 µM in the assay on ML2; 8.2 µM in the assay on CMK; over 10 µM in the assay on CHRF288-11; 3.4 µM in the assay with U937; 10 µM with M07e. Moreover, the “average effective concentration, MV4-11” value with MV4-11 is recorded as “Inactive”. The “average effective concentration, MOLM-13” value in the assay on MOLM-13 was “Inactive”.
